Target: BRAF^V600E (Homo sapiens, UniProt P15056, V600E)
Experiment: BRAF^V600E enzymatic activity assay (LanthaScreen kinase assay kit, TR-FRET)
Details: read-out: BRAF^V600E Lantha IC50; BRAF^V600E 20 ng/mL, ATP 2 μM, Fluorescein-MAP2K1 0.4 μM, room temperature, 60 minutes

Chains of the proteins cited; added tags and fusions are not shown.
UniProt P15056, whole entry V600E: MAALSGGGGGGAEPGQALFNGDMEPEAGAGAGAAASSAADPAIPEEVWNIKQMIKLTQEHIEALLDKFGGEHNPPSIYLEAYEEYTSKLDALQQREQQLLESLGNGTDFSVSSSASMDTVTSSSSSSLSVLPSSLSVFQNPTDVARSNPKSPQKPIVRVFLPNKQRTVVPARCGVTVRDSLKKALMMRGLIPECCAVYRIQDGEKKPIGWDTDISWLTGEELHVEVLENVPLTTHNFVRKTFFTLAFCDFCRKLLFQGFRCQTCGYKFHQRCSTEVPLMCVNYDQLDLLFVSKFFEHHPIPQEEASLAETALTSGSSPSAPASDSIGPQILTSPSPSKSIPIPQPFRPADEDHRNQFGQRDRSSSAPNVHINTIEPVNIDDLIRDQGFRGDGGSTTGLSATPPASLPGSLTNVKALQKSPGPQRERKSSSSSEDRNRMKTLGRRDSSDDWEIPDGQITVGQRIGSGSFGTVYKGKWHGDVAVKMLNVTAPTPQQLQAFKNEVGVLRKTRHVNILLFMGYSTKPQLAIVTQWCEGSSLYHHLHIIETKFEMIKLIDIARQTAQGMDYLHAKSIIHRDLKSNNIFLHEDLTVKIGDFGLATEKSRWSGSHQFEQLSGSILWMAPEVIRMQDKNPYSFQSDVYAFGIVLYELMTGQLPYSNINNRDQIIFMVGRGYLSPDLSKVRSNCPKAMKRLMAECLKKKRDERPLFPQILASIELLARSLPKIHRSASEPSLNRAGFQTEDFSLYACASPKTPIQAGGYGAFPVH

IC50 [nM] | SMILES
220 | CCCS(=O)(=O)Nc1ccc(F)c(-c2cc3cnc4[nH]nc(C5CC5)c4c3cc2OC)c1F [Example 23, N-(3-(1-cyclopropyl-8-methoxy-3H-pyrazolo[3,4-c]isoquinolin-7-yl)-2,4-difluorophenyl)propane-1-sulfonamide]
7 | COc1cc2c(cnc3[nH]nc(C4CC4)c32)cc1-c1c(F)ccc(NS(=O)(=O)CCCF)c1Cl [Example 25, N-(2-chloro-3-(1-cyclopropyl-8-methoxy-3H-pyrazolo[3,4-c]isoquinolin-7-yl)-4-fluorophenyl)-3-fluoropropane-1-sulfonamide]

From patent publication US20160257676A1, “Aminoisoquinoline Derivatives as Protein Kinase Inhibitors” (ETERNITY BIOSCIENCE INC., priority 2012, published 2016)
